pIC50: −log10 of the molar value. Where two headings read alike, the source gives them in different places.
Tests used:
[1] = tested on: Gli-luciferase activity in TMHh12 cells; assay: Reporter gene assay (RGA) in TMHh12 cells, antagonism of Gli-luciferase activity in presence of Smo agonist; assay type: cell-based; details: Table 10, values as ranges
Description: Activity of the compounds was evaluated using a reporter gene assay (RGA) in TMHh12 cells. IC50 for antagonism of Gli-luciferase activity was tested in the presence of increasing concentrations of a small molecule agonist which binds to Smo with 1 nM affinity and activates the Hh pathway (Frank-Kamenetsky et al 2002, Journal of Biology 1, 10.1-10.19).
Table 10 lists the IC50 of antagonists determined in the presence of different (1 nM and 25 nM) concentrations of a small agonist of Smoothened (Frank-Kamenetsky et al 2002, Journal of Biology 1, 10.1-10.19).

Chains of the proteins cited; added tags and fusions are not shown. Residues count along the entry.
UniProt P56726, 33-793 limits assumed: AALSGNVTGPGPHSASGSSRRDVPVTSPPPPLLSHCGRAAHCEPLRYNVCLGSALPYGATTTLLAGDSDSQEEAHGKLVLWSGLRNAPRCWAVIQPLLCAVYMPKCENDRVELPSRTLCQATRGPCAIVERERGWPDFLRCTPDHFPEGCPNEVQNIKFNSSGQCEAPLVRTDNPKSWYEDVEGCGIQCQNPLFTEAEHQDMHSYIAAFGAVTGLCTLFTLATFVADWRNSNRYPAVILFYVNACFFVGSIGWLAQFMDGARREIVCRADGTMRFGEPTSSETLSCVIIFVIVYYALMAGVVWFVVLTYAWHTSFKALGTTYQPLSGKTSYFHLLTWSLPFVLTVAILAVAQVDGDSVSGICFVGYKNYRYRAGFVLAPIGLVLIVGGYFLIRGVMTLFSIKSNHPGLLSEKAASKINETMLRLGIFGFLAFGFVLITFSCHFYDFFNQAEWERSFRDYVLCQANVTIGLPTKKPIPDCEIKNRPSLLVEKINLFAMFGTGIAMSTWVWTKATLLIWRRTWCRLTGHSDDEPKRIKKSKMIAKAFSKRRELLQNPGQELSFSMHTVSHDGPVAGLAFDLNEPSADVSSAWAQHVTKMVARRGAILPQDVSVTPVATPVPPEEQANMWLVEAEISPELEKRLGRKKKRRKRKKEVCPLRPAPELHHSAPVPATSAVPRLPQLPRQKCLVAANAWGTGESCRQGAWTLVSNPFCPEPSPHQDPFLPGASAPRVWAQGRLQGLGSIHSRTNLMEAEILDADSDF
UniProt Q99835, 28-787 limits assumed: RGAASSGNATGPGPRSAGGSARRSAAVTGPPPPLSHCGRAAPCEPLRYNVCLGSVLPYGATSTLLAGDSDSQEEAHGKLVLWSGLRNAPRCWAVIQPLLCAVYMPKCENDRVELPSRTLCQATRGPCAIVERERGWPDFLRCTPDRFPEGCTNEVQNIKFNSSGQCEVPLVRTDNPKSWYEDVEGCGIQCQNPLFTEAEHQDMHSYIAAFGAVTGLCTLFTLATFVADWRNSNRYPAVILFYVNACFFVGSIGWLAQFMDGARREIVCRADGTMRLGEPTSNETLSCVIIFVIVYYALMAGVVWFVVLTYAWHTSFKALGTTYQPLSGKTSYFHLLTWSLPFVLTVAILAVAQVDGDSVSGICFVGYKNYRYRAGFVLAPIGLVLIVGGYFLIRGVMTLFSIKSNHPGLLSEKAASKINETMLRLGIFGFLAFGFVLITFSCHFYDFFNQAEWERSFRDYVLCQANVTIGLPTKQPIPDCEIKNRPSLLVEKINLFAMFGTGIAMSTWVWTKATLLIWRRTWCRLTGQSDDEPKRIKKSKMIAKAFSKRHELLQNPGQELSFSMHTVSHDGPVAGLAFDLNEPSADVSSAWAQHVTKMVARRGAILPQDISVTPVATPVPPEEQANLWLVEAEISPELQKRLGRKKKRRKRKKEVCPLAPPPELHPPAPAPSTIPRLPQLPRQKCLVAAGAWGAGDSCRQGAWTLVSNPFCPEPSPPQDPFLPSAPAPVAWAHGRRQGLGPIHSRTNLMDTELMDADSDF

[2] = target: mouse Smoothened receptor (Mus musculus, UniProt P56726); assay: Smo binding assay, displacement of radio-labeled smoothened agonist, filter binding format (mouse); details: read-out: Mouse Smo bdg., IC50; Table 10, values as ranges
[3] = target: human Smoothened receptor (Homo sapiens, UniProt Q99835); assay: Smo binding assay, displacement of radio-labeled smoothened agonist, filter binding format (human); details: read-out: Human Smo bdg., IC50; Table 10, values as ranges
[4] = read-out: RGA (1 nM Smo agonist) IC50, 1 nM Smo agonist
[5] = read-out: RGA (25 nM Smo agonist) IC50, 25 nM Smo agonist

| Structure (SMILES) | pIC50 [1, 4] | pIC50 [1, 5] | pIC50 [2] | pIC50 [3] |
| --- | --- | --- | --- | --- |
| CCCCOC(=O)c1cnc(N2CCN(c3nnc(-c4cccnc4)c(C)c3C)C[C@H]2C)nc1C(F)(F)F | 9.00 to 10.00 | 9.00 to 10.00 | 9.00 to 10.00 | 9.00 to 10.00 |
| CCCCOC(=O)c1cnc(N2CCN(c3nnc(-c4ccncc4)c(C)c3C)C[C@H]2C)nc1C(F)(F)F | 9.00 to 10.00 | 8.00 to 9.00 | > 10.00 | > 10.00 |
| CCCCOC(=O)c1cnc(N2CCN(c3nnc(-c4ccc(F)c(C#N)c4)c(C)c3C)CC2)nc1C(F)(F)F | 9.00 to 10.00 | 8.00 to 9.00 | > 10.00 | > 10.00 |
| CCCCOC(=O)c1cnc(N2CCN(c3nnc(-c4ccc(C(C)C)cc4)c(C)c3C)CC2)nc1C(F)(F)F | 9.00 to 10.00 | 8.00 to 9.00 | 9.00 to 10.00 | 9.00 to 10.00 |
| CCCCOC(=O)c1cnc(N2CCN(c3nnc(-c4ccc(F)nc4)c(C)c3C)C[C@H]2C)nc1C(F)(F)F | 9.00 to 10.00 | 9.00 to 10.00 | > 10.00 | 9.00 to 10.00 |

— patent publication US8481542B2, “Pyridazinyl derivatives as smo inhibitors” (Novartis AG, priority 2008, dated 2013)
